{"source": "patent US20110086797A1", "about": "“CONTROL OF SPORE GERMINATION” (priority 2007, published 2011)", "system": "bacterial cells", "experiment": "Lysis of bacterial cells", "conditions": "His-tagged purified protein", "data": [{"substance": "YocA: His-tagged, cloned and purified B. subtilis YocH protein of the MltA family", "values": [{"measurement": "lysis of bacterial cells (result in words)", "result": "lyse bacterial cells similar to hen egg white lysozyme"}]}]}
